Patent US5846562A, “Oral composition of fumagillol derivative” (Takeda Chemical Industries, Ltd., priority 1996, dated 1998)

Settings: rat, in vivo, po, 100 mg/kg, 15 min
Excerpt: Blood was collected from the caudal vein periodicaly to determine the plasma concentration of metabolite.

## CO[C@@H]1[C@H](OC(=O)NC(=O)CCl)CC[C@]2(CO2)[C@H]1[C@@]1(C)O[C@@H]1CC=C(C)C [Compound A, 6-O-(N-chloroacetylcarbamoyl)fumagillol]
  Plasma concentration of metabolite: 15.6 ± 1.6 ng/mL
